How the values were obtained:
Normal human fibroblasts [1] = test: Toxicity of farrerol on fibroblasts, MTT assay (WST-8); assay type: cell-based; details: farrerol 10^−6, 5×10^−7 and 10^−7 ml/ml-DMEM
Procedure: The toxicity of farrerol was examined by the MTT assay and the dose of farrerol added to the heparin supplemented system was then obtained. 1. Fibroblasts grown to 80% confluency were dispersed with 0.05% Trypsin/EDTA. The dispersant was seeded on 96 wells/plate at a concentration of 3×10^3 cells/well. 2. After 24 hours, farrerol with adjusted concentration was added to the respective wells in a volume of […]/well (n=8). 3. WST-8/1-Methyl PMS was added to the respective wells in a volume of […]/well after 24 hours, 48 hours, and 72 hours from the addition of farrerol and then incubated at 37° C. for 4 hours. 4. Absorbance was measured at a measurement wavelength of 450 nm and a reference wavelength of 650 nm.

Normal human fibroblasts [2] = details: heparin nonsupplemented and heparin supplemented conditions; compared with DMSO-added control; FIG. 1
[3] = tested on: Normal human epidermal keratinocytes
[4] = tested on: Normal human epidermal keratinocytes; test: Cell proliferation effect of farrerol on keratinocytes (direct evaluation, cell count); assay type: cell-based
Procedure: 3) After 24 hours, 48 hours, and 72 hours from the sample addition, the cells were dispersed with 0.05% Trypsin/EDTA and the number thereof was then counted by a blood cell counter. By the way, in Experiment 1, the evaluation for WST-8 was used as an indicator of the number of cells. Since such a method is provided for indirect evaluation of the number of cells by acting on […] in mitochondria, the present study directly count the number of cells.

Cc1c(O)c(C)c2c(c1O)C(=O)CC(c1ccc(O)cc1)O2 (stereo not shown) [farrerol] was tested, and the cell proliferation (Normal human fibroblasts [1]) was “cell proliferation was promoted”, the “cell proliferation (number of cells vs incubation days)” value (Normal human fibroblasts [2]) was “tended to promote cell proliferation” and the “OD value relative to control DMSO” value ([3]; 3×10^3 cells/well, 24 hours, 10^−5 M farrerol) was “two or more times higher than that of the control”. The “OD value relative to DMSO” value ([3]; 3×10^3 cells/well, 48 hours, 10^−5 M farrerol) was 1.7 times, the “visual evaluation of cell proliferation” value ([3]; farrerol-added group compared with DMSO) was “did not give the impression that the cell proliferation of the farrerol-added group was promoted” and the cell proliferation rate ([4]; 10^−5 M farrerol, after 24 hours, control (DMSO-added group) = 100%) was 75.1±5.2%. For the same compound, the cell proliferation rate ([4]; 10^−5 M farrerol, after 48 hours, control = 100%) was “about 71.9±16.6%”, the cell proliferation rate ([4]; 10^−6 M farrerol, after 24 hours, control = 100%) was 75.5±5.8% and the cell proliferation rate ([4]; 10^−7 M farrerol, after 24 hours, control = 100%) was 77.1±8.6%. The cell proliferation rate ([4]; concentrations lower than 10^−5 M, after 48 hours) was “almost the same proliferation rate as that of the control group”.

From US20110021619A1, “EXTERNAL PREPARATION FOR SKIN CONTAINING FLAVANONE DERIVATIVE” (priority 2006, published 2011)
